# Measurements as given in article PMC2248166, “Quantitative peptide binding motifs for 19 human and mouse MHC class I molecules derived using positional scanning combinatorial peptide libraries” (Immunome Research, 2008).
# Amino acid sequences for entries named in this document (tags omitted). A change or cut given only in a name is not applied to a line headed by its entry.
# UniProt P01889: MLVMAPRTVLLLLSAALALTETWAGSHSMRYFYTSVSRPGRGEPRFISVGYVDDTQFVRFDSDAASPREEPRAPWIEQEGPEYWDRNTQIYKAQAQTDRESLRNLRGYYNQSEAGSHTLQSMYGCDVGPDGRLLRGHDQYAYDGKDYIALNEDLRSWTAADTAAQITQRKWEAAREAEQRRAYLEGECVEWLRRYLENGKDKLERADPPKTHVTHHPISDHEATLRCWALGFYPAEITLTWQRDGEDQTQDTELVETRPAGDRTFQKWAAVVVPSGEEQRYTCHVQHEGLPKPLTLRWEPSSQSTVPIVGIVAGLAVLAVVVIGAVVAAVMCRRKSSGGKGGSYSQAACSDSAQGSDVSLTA
# pIC50: −log10 of the molar value.
# Target: HLA B*0801 (Homo sapiens, UniProt P01889, A93T/A95T/D138N/E176V/E187T/K202T/Q94N/R180D/S35A/V36M/Y33D/Y91F)
# Experiment: biochemical
# Format: binding
smiles,measurement,value
CC(C)C[C@H](NC(=O)[C@H](CO)NC(=O)[C@H](Cc1c[nH]cn1)NC(=O)[C@@H](NC(=O)[C@H](Cc1ccc(O)cc1)NC(=O)[C@H](Cc1ccc(O)cc1)NC(=O)[C@H](CC(C)C)NC(=O)[C@H](C)NC(=O)[C@@H](N)CCC(=O)O)C(C)C)C(=O)O [3102.0715],pIC50,8.68
